The list shows a part of the results, in another mix than the full data. Some salts and complexes are drawn in separate pieces, as the source files them; their charges need not balance. Calls of active or inactive are those of the source.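 The calls were made as follows: active = inhibition of at least 40% at 10 µM in the primary screen; inactive = the rest.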
System: intestinal alkaline phosphatase [Mus musculus]
Experiment: mouse intestinal phosphatase enzyme inhibition – biochemical, luminescence, uHTS, primary screen (AID 2806);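 also: plate controls were DMSO with enzyme for no effect and no enzyme wells for full effect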
Settings: purified mouse IAP, CDP-Star luminescence, 30 min; at 10 µM; active compounds read high

With COc1ccc(OP(C)(=O)Nc2ccc(Br)cc2)cc1 (stereo not given) as the compound, how does the inhibition read?
The inhibition was inactive: -9.3%.

With CCN(CC)CC(O)COC(=O)C(O)(c1ccccc1)C1CCCCC1 (stereo not given) as the compound, how does the inhibition read?
The inhibition was inactive: -0.7%.

How did the inhibition turn out when CCc1ccc(OP(C)(=O)Nc2cccnc2)cc1 (stereo not given) was run?
The inhibition was inactive: -6.8%.

Which inhibition does the source give for CP(=O)(Oc1ccccc1)N1CCOC1=O (stereo not given) here?
The inhibition was inactive: 8.5%.

How did the inhibition turn out when O=C(OCCCN1CCCC1)C(O)(c1ccccc1)C1CCCCC1 (stereo not given) was run?
The inhibition was inactive: 9.9%.

Which inhibition does the source give for COc1ccccc1OP(C)(=O)Nc1c(C)n(C)n(-c2ccccc2)c1=O (stereo not given) here?
Its inhibition is inactive: 8.1%.

CP(=O)(Nc1ccc(Cl)cc1)Oc1ccc(F)cc1 (stereo not given) was tested. Which inhibition did it give?
The inhibition was inactive: -3.4%.

COc1ccccc1OP(C)(=O)Nc1ccccc1Br (stereo not given) was tested. Which inhibition did it give?
Its inhibition is inactive: 3.9%.

With CC(C)(C)c1ccc(OP(C)(=O)O)cc1 as the compound, how does the inhibition read?
Its inhibition is inactive: 0.5%.

CN(C)C(=O)c1c([N+](=O)[O-])cc([N+](=O)[O-])cc1[N+](=O)[O-] was tested. Which inhibition did it give?
The inhibition was inactive: 4.4%.

Nc1ccc2c(ccc3cccnc32)n1.O=[N+]([O-])c1cc([N+](=O)[O-])c(O)c([N+](=O)[O-])c1 was tested. Which inhibition did it give?
The inhibition was inactive: 6%.

Which inhibition does the source give for CP(=O)(OC12CC3CC(CC(C3)C1)C2)OC12CC3CC(CC(C3)C1)C2 here?
Its inhibition is inactive: 17.6%.

How did the inhibition turn out when CCOC(=O)c1ccc(NP(C)(=O)Oc2ccc(Cl)cc2)cc1 (stereo not given) was run?
The inhibition was inactive: -6.6%.

Which inhibition does the source give for Cc1cc(C)cc(OP(C)(=O)Nc2cccc(C(F)(F)F)c2)c1 (stereo not given) here?
Its inhibition is inactive: 0.2%.

With COc1ccc(OP(C)(=O)Nc2ccccc2Br)cc1 (stereo not given) as the compound, how does the inhibition read?
Its inhibition is inactive: -8%.

With COc1ccccc1OP(C)(=O)Nc1ccc(C)c(C)c1 (stereo not given) as the compound, how does the inhibition read?
The inhibition was inactive: -0.8%.

Cc1nc2ccc3ccccc3c2o1.O=[N+]([O-])c1cc([N+](=O)[O-])c(O)c([N+](=O)[O-])c1 was tested. Which inhibition did it give?
Its inhibition is inactive: 5.2%.

CP(=O)(Nc1ccc(Cl)cc1Cl)Oc1ccccc1 (stereo not given) was tested. Which inhibition did it give?
Its inhibition is inactive: -18.7%.

For CP(=O)(OCCOc1ccccc1)OCCOc1ccccc1, which inhibition is on record?
Its inhibition is inactive: -12.1%.

Which inhibition does the source give for COc1ccccc1OP(C)(=O)Nc1ccc(Br)cc1 (stereo not given) here?
Its inhibition is inactive: -0.4%.

For CN(C)CCOC(=O)C(O)(c1ccccc1)C1CCCC1 (stereo not given), which inhibition is on record?
The inhibition was inactive: 3.7%.

For COc1ccc(OP(C)(=O)Nc2ccccn2)cc1 (stereo not given), which inhibition is on record?
Its inhibition is inactive: -0.3%.

With Cc1c(NP(C)(=O)Oc2ccc(C(C)C)cc2)c(=O)n(-c2ccccc2)n1C (stereo not given) as the compound, how does the inhibition read?
The inhibition was inactive: 2.2%.

With O=[N+]([O-])c1cc([N+](=O)[O-])c(Nc2ccccn2)c([N+](=O)[O-])c1 as the compound, how does the inhibition read?
Its inhibition is inactive: 27.9%.

Which inhibition does the source give for CCc1ccc(OP(C)(=O)O)cc1 here?
Its inhibition is inactive: 1.4%.

COc1ccccc1OP(C)(=O)Nc1ccc(C)cc1C (stereo not given) was tested. Which inhibition did it give?
Its inhibition is inactive: -3%.

CP(=O)(Nc1ccccn1)Oc1ccccc1 (stereo not given) was tested. Which inhibition did it give?
The inhibition was inactive: 5.6%.

Which inhibition does the source give for CC(C)c1ccc(OP(C)(=O)Nc2ccc(SC(F)(F)F)cc2)cc1 (stereo not given) here?
Its inhibition is inactive: -5.6%.

For CP(=O)(Nc1ccccc1F)Oc1ccccc1 (stereo not given), which inhibition is on record?
The inhibition was inactive: -4.5%.

Which inhibition does the source give for O=C(OCCN1CCN(CCOCc2ccccc2)CC1)C(O)(c1ccccc1)c1ccccc1 here?
The inhibition was inactive: 7.8%.

Which inhibition does the source give for O=C(OC1CN2CCC1CC2)c1ccc([N+](=O)[O-])cc1 (stereo not given) here?
The inhibition was inactive: -10.7%.

With COc1ccc2c(c1O)-c1c(O)c(OC)cc3c1[C@H](C2)[N+](C)(C)CC3.O=[N+]([O-])c1cc([N+](=O)[O-])c([O-])c([N+](=O)[O-])c1[O-] as the compound, how does the inhibition read?
Its inhibition is inactive: 6.5%.

COc1ccc(OP(C)(=O)Nc2ccc(SC(F)(F)F)cc2)cc1 (stereo not given) was tested. Which inhibition did it give?
Its inhibition is inactive: 6.3%.

With CCOC(=O)c1ccc(NP(C)(=O)Oc2ccc(F)cc2)cc1 (stereo not given) as the compound, how does the inhibition read?
Its inhibition is inactive: 2.9%.

Which inhibition does the source give for CCN(CC)CCCOC(=O)C(O)(c1ccccc1)C1CCCCC1 (stereo not given) here?
The inhibition was inactive: 4.5%.

With O=[N+]([O-])c1cc([N+](=O)[O-])c(OC2CCCCC2O)c([N+](=O)[O-])c1 (stereo not given) as the compound, how does the inhibition read?
The inhibition was inactive: 4.5%.

CCCCCOc1ccc(NP(C)(=O)Oc2ccc(Cl)cc2Cl)cc1 (stereo not given) was tested. Which inhibition did it give?
The inhibition was inactive: 3.9%.

CP(=O)(Nc1ccccc1)Oc1ccc(F)cc1 (stereo not given) was tested. Which inhibition did it give?
The inhibition was inactive: 3.5%.

With COc1ccc(OP(C)(=O)Nc2cccc(Br)c2)cc1 (stereo not given) as the compound, how does the inhibition read?
Its inhibition is inactive: 3.9%.

COc1ccc(NP(C)(=O)Oc2ccccc2OC)cc1 (stereo not given) was tested. Which inhibition did it give?
Its inhibition is inactive: 8.9%.

Which inhibition does the source give for CN(C)CCOC(=O)C(O)(c1ccccc1)C1CCCCC1 (stereo not given) here?
Its inhibition is inactive: -14.4%.

Which inhibition does the source give for O=[N+]([O-])c1cc([N+](=O)[O-])c(NCC2CCS(=O)(=O)C2)c([N+](=O)[O-])c1 (stereo not given) here?
Its inhibition is inactive: 11.2%.

For CP(=O)(Nc1ccc(SC(F)(F)F)cc1)Oc1ccc(F)cc1 (stereo not given), which inhibition is on record?
The inhibition was inactive: 15%.

For CCOP(C)(=S)SCC(=O)NC(C)(CC)C(=O)O (stereo not given), which inhibition is on record?
The inhibition was inactive: 2.8%.

For CP(=O)(Nc1ccc2c(c1)OCCO2)Oc1ccccc1 (stereo not given), which inhibition is on record?
The inhibition was inactive: 4.2%.

Which inhibition does the source give for Cc1ccccc1NP(C)(=O)Nc1ccccc1C here?
The inhibition was inactive: -0.4%.

Which inhibition does the source give for O=[N+]([O-])c1cc([N+](=O)[O-])c(-n2nnc3ccccc32)c([N+](=O)[O-])c1 here?
Its inhibition is inactive: -0.7%.

Which inhibition does the source give for O=[N+]([O-])c1cc([N+](=O)[O-])c(-c2cnn(-c3ccccc3)c2)c([N+](=O)[O-])c1 here?
Its inhibition is inactive: 2%.

For Cc1nc2ccc3ccccc3c2s1.O=[N+]([O-])c1cc([N+](=O)[O-])c(O)c([N+](=O)[O-])c1, which inhibition is on record?
Its inhibition is inactive: -8.7%.

For CCOC(=O)C(CC)C1=NC(C)(C)Cc2ccccc21.O=[N+]([O-])c1cc([N+](=O)[O-])c(O)c([N+](=O)[O-])c1 (stereo not given), which inhibition is on record?
The inhibition was inactive: 5.1%.

With CC1=C2N=C(C=C3N=C(C(C)=C4[N-][C@@](C)([C@@H]5N=C1[C@](C)(CCC(=O)NC[C@@H](C)OP(=O)([O-])O[C@H]1[C@@H](O)[C@@H](n6cnc7cc(C)c(C)cc76)O[C@@H]1CO)[C@H]5CC(N)=O)[C@@](C)(CC(N)=O)[C@@H]4CCC(N)=O)[C@@](C)(CC(N)=O)[C@@H]3CCC(N)=O)C(C)(C)[C@@H]2CCC(N)=O.[C-]#N.[Co+3] as the compound, how does the inhibition read?
The inhibition was inactive: 18.1%.

With O=[N+]([O-])c1cc([N+](=O)[O-])c(Nc2nnnn2CCO)c([N+](=O)[O-])c1 as the compound, how does the inhibition read?
The inhibition was inactive: 18.6%.

With COc1ccccc1OP(C)(=O)Nc1c(C)cccc1C (stereo not given) as the compound, how does the inhibition read?
The inhibition was inactive: 3.8%.

CN1CCCCC1COC(=O)C1(O)c2ccccc2CCc2ccccc21 (stereo not given) was tested. Which inhibition did it give?
Its inhibition is inactive: -2.9%.

How did the inhibition turn out when CCCOc1ccc(NP(C)(=O)Oc2ccc(Cl)cc2)cc1 (stereo not given) was run?
Its inhibition is inactive: -3%.

From PubChem BioAssay AID2806 (Sanford-Burnham Center for Chemical Genomics, 2010)
